Values of other authors as cited in patent US12053452B2 (priority 2021, dated 2024).

Conditions: human urine, after racemic MDMA; cited from earlier work

Row | Substance | enantiomer with higher Cmax
1 | 3,4-dihydroxymethamphetamine | Higher R-enantiomer Cmax
2 | (±)-4-hydroxy-3-methoxymethamphetamine | S-enantiomers were higher
